The target of the assay is IL-23R-expressing DB cells (Homo sapiens, UniProt Q5VWK5). The assay is described as follows: DB Cells IL23R pSTAT3 Cell Assay. The assay is classed as cell-based. Particulars: pSTAT3 (HTRF) in IL-23R-expressing DB cells, 0.5 nM IL-23, 30 minutes; Table 6 'IL-23 Cell Data'. The source says: IL-23 is believed to play a central role in supporting and maintaining Th17 differentiation in vivo. This process is thought to be mediated primarily through the Signal Transducer and Activator of Transcription 3 (STAT3), with phosphorylation of STAT3 (to yield pSTAT3) leading to upregulation of RORC and pro-inflammatory IL-17. This cell assay examines the levels of pSTAT3 in IL-23R-expressing DB cells when stimulated with IL-23 in the presence of test compounds. Serial dilutions of test peptides and IL-23 (Humanzyme #HZ-1261) at a final concentration of 0.5 nM, were added to each well in a 96 well tissue culture plate (Corning #CLS3894). DB cells (ATCC #CRL-2289), cultured in RPMI-1640 medium (Thermo Scientific #11875093) supplemented with 10% FBS, were added at 5 X 10E5 cells/well and incubated for 30 minutes at 37° C. in a 5% CO2 humidified incubator. Changes in phospho-STAT3 levels in the cell lysates were detected using the Cisbio HTRF pSTAT3 (Tyr705) Cellular Assay Kit (Cisbio #62AT3PEH), according to manufacturer's Two Plate Assay protocol. Where not shown or it is marked as “0”, data was not yet determined.

By UniProt entry, the sequences of proteins in these tests, tags left out. Residues count along the entry.
UniProt Q5VWK5, 24-629 limits assumed: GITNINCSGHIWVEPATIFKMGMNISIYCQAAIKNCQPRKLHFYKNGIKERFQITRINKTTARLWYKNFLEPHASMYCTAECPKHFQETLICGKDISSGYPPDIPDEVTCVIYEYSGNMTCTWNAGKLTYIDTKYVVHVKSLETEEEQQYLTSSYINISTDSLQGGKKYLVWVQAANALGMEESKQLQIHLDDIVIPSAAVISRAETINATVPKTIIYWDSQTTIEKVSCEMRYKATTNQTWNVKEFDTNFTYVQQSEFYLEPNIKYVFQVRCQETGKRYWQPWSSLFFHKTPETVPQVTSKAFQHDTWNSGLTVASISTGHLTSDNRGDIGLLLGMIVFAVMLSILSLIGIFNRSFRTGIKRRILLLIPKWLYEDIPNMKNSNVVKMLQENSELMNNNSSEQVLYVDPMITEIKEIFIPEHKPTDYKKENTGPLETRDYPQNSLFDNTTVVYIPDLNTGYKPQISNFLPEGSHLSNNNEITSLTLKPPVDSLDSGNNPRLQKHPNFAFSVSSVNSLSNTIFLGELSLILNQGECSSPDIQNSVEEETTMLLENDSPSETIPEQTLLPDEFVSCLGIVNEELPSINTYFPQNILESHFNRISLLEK

Substance “Ac-[Pen]-A-T-[Trp(7-Me)]-[Lys(Ac)]-[Pen]-[Phe(4-OMe)]-[2Nal]-[aMeLys(PEG12_IsoGlu_C18_Diacid)]-A-A-[3Pal]-[Sarc]-NH2 [Example 224]” yielded an IC50 of 0.807 nM.
Consider “Ac-[Pen]-A-T-[Trp(7-Me)]-[Lys(Ac)]-[Pen]-[Phe(4-OMe)]-[2Nal]-[aMeLys(PEG12_IsoGlu_Palm)]-A-A-[3Pal]-[Sarc]-NH2 [Example 223]”, for which it took 0.801 nM to reach half-maximal inhibition (IC50).
For the substance “Ac-[Pen]-L-T-[Trp(7-Me)]-[Lys(Ac)]-[Pen]-[Phe(4-OMe)]-[2Nal]-[THP]-[Lys(Ac)]-[Lys(PEG12_C18_Diacid)]-[3Pal]-[Sarc]-NH2 [Example 239]”, the IC50 turned out to be 5.16 nM.
“Ac-[Pen]-L-T-[Trp(7-Me)]-[Lys(Ac)]-[Pen]-[Phe(4-OMe)]-[2Nal]-[THP]-[Lys(PEG12_C18_Diacid)]-L-[3Pal]-[Sarc]-NH2 [Example 242]” yielded a 50% inhibitory concentration (IC50) of 4.15 nM.
Then “Ac-[Pen]-L-T-[Trp(7-Me)]-[Lys(Ac)]-[Pen]-[Phe(4-OMe)]-[2Nal]-[THP]-[Lys(PEG12_IsoGlu_C18_Diacid)]-L-[3Pal]-[Sarc]-NH2 [Example 244]”, with 8.98 nM; and “Ac-[Pen]-L-T-[Trp(7-Me)]-[Lys(IsoGlu_C18_Diacid)]-[Pen]-[Phe(4-OMe)]-[2Nal]-[THP]-L-L-[3Pal]-[Sarc]-NH2 [Example 263]”, with more than 10 nM; and “Ac-[Pen]-L-T-[Trp(7-Me)]-[Lys(IsoGlu_Palm)]-[Pen]-[Phe(4-OMe)]-[2Nal]-[THP]-[Lys(Ac)]-L-[3Pal]-[Sarc]-NH2 [Example 272]”, with more than 10 nM.
The figure for “Ac-[Pen]-L-T-[Trp(7-Me)]-[Lys(PEG4)]-[Pen]-F-[2Nal]-[aMeLeu]-L-N-[3Pal]-[Sarc]-NH2 [Example 214]” is 0.433 nM; for “Ac-[Pen]-L-T-[Trp(7-Me)]-[Lys(PEG4_C18_Diacid)]-[Pen]-[Phe(4-OMe)]-[2Nal]-[THP]-[Lys(Ac)]-L-[3Pal]-[Sarc]-NH2 [Example 270]” it is more than 10 nM.
The substance “Ac-[Pen]-L-T-[Trp(7-Me)]-[Lys(PEG4_IsoGlu_C18_Diacid)]-[Pen]-[Phe(4-OMe)]-[2Nal]-[THP]-L-L-[3Pal]-[Sarc]-NH2 [Example 266]” yielded an IC50 of more than 10 nM.
Then “Ac-[Pen]-L-T-[Trp(7-Me)]-[Lys(PEG4_IsoGlu_C18_Diacid)]-[Pen]-[Phe(4-OMe)]-[2Nal]-[THP]-[Lys(Ac)]-L-[3Pal]-[Sarc]-NH2 [Example 274]”, with more than 10 nM; and “Ac-[Pen]-L-T-[Trp(7-Me)]-[Lys(PEG4_IsoGlu_Palm)]-[Pen]-[Phe(4-OMe)]-[2Nal]-[THP]-L-L-[3Pal]-[Sarc]-NH2 [Example 265]”, with more than 10 nM.
“Ac-[Pen]-L-T-[Trp(7-Me)]-[Lys(PEG4_IsoGlu_Palm)]-[Pen]-[Phe(4-OMe)]-[2Nal]-[THP]-[Lys(Ac)]-L-[3Pal]-[Sarc]-NH2 [Example 273]”: the IC50 is more than 10 nM.
In turn, “Ac-[Pen]-L-T-[Trp(7-Me)]-[Lys(PEG12_C18_Diacid)]-[Pen]-[Phe(4-OMe)]-[2Nal]-[THP]-[Lys(Ac)]-L-[3Pal]-[Sarc]-NH2 [Example 269]” registered an IC50 of 2.63 nM.
The figure for “Ac-[Pen]-L-T-[Trp(7-Me)]-[Lys(PEG12_IsoGlu_Palm)]-[Pen]-[Phe(4-OMe)]-[2Nal]-[THP]-L-L-[3Pal]-[Sarc]-NH2 [Example 267]” is more than 10 nM; for “Ac-[Pen]-L-T-[Trp(7-Me)]-[Lys(PEG12_IsoGlu_Palm)]-[Pen]-[Phe(4-OMe)]-[2Nal]-[THP]-[Lys(Ac)]-L-[3Pal]-[Sarc]-NH2 [Example 275]” it is 2.37 nM.
The figure for “Ac-[Pen]-L-T-[Trp(7-Me)]-[Lys(PEG12_OMe)]-[Pen]-F-[2Nal]-[aMeLeu]-L-N-[3Pal]-[Sarc]-NH2 [Example 210]” is 0.0798 nM; for “Ac-[Pen]-L-[Lys(PEG12_IsoGlu_C18_Diacid)]-[Trp(7-Me)]-[Lys(Ac)]-[Pen]-[Phe(4-OMe)]-[2Nal]-[THP]-[Lys(Ac)]-L-[3Pal]-[Sarc]-NH2 [Example 247]” it is more than 10 nM; for “Ac-[Pen]-L-[Lys(PEG12_IsoGlu_Palm)]-[Trp(7-Me)]-[Lys(Ac)]-[Pen]-[Phe(4-OMe)]-[2Nal]-[THP]-[Lys(Ac)]-L-[3Pal]-[Sarc]-NH2 [Example 246]” it is more than 10 nM.
In turn, “Ac-[Pen]-N-T-[Trp(7-Me)]-[Lys(Ac)]-[Pen]-F-[2Nal]-[aMeLys(PEG12_IsoGlu_Palm)]-E-L-[3Pal]-[Sarc]-NH2 [Example 222]” yielded an IC50 of 2.62 nM.
The figure for “Ac-[Pen]-N-T-[Trp(7-Me)]-[Lys(Ac)]-[Pen]-F-[2Nal]-[aMeLys(PEG12_IsoGlu_Palm)]-L-L-[3Pal]-[Sarc]-NH2 [Example 221]” is 5.22 nM.
The figure for “Ac-[Pen]-N-T-[Trp(7-Me)]-[Lys(Ac)]-[Pen]-F-[2Nal]-[aMeLys(PEG12_IsoGlu_Palm)]-[Lys(Ac)]-L-[3Pal]-[Sarc]-NH2 [Example 234]” is 0.512 nM; for “Ac-[Pen]-N-T-[Trp(7-Me)]-[Lys(Ac)]-[Pen]-[2Nal]-[2Nal]-[aMeLys(PEG12_IsoGlu_Palm)]-E-L-[3Pal]-[Sarc]-NH2 [Example 219]” it is 2.87 nM; for “Ac-[Pen]-N-T-[Trp(7-Me)]-[Lys(Ac)]-[Pen]-[2Nal]-[2Nal]-[aMeLys(PEG12_IsoGlu_Palm)]-[Lys(Ac)]-L-[3Pal]-[Sarc]-NH2 [Example 220]” it is 2.68 nM.
The figure for “Ac-[Pen]-N-T-[Trp(7-Me)]-[Lys(Ac)]-[Pen]-[Phe(4-(2-(1PEG2_1PEG2_IsoGlu_C18_Diacid)aminoethoxy))]-[2Nal]-[THP]-[Lys(Ac)]-L-[3Pal]-[Sarc]-NH2 [Example 229]” is 3.51 nM; for “Ac-[Pen]-N-T-[Trp(7-Me)]-[Lys(Ac)]-[Pen]-[Phe(4-(2-(1PEG2_1PEG2_IsoGlu_Palm)aminoethoxy))]-[2Nal]-[THP]-[Lys(Ac)]-L-[3Pal]-[Sarc]-NH2 [Example 228]” it is 5.11 nM; for “Ac-[Pen]-N-T-[Trp(7-Me)]-[Lys(Ac)]-[Pen]-[Phe(4-(2-(PEG12_IsoGlu_C18_Diacid)aminoethoxy))]-[2Nal]-[THP]-[Lys(Ac)]-L-[3Pal]-[Sarc]-NH2 [Example 279]” it is 0.277 nM.
As to “Ac-[Pen]-N-T-[Trp(7-Me)]-[Lys(Ac)]-[Pen]-[Phe(4-(2-(PEG12_IsoGlu_Palm)aminoethoxy))]-[2Nal]-[THP]-[Lys(Ac)]-L-[3Pal]-[Sarc]-NH2 [Example 231]”, half-maximal inhibition (IC50) was put at 2.83 nM.
Then “Ac-[Pen]-N-T-[Trp(7-Me)]-[Lys(Ac)]-[Pen]-[Phe(4-OMe)]-[2Nal]-[aMeLys(PEG12_IsoGlu_C18_Diacid)]-A-A-[3Pal]-[Sarc]-NH2 [Example 235]”, with 0.585 nM.
In turn, “Ac-[Pen]-N-T-[Trp(7-Me)]-[Lys(Ac)]-[Pen]-[Phe(4-OMe)]-[2Nal]-[aMeLys(PEG12_IsoGlu_Palm)]-E-L-[3Pal]-[Sarc]-NH2 [Example 217]” showed an IC50 of 1.37 nM.
Then “Ac-[Pen]-N-T-[Trp(7-Me)]-[Lys(Ac)]-[Pen]-[Phe(4-OMe)]-[2Nal]-[aMeLys(PEG12_IsoGlu_Palm)]-[Lys(Ac)]-L-[3Pal]-[Sarc]-NH2 [Example 218]”, with 1.01 nM; and “Ac-[Pen]-N-T-[Trp(7-Me)]-[Lys(PEG12_OMe)]-[Pen]-F-[2Nal]-[aMeLeu]-L-N-[3Pal]-[Sarc]-NH2 [Example 208]”, with 0.056 nM.
The figure for “MeCO-k(gEC18)-Pen(3)-E(2)-T-7MeW-K(Ac)-Pen(3)-AEF(2)-2Nal-THP-K(Ac)-N-3Pya-Sar-CONH2 [Compound 310]” is 0.615 nM.

A word on the IC50: it is the concentration that inhibits the measured activity by half.
